Here are results for two molecules from US9907800B2, “Kinase inhibitors and method of treating cancer” (University Health Network, priority 2010, dated 2018).

By UniProt entry, the sequences of proteins in these tests, tags left out. Residues count along the entry.
UniProt O00444, 1-391: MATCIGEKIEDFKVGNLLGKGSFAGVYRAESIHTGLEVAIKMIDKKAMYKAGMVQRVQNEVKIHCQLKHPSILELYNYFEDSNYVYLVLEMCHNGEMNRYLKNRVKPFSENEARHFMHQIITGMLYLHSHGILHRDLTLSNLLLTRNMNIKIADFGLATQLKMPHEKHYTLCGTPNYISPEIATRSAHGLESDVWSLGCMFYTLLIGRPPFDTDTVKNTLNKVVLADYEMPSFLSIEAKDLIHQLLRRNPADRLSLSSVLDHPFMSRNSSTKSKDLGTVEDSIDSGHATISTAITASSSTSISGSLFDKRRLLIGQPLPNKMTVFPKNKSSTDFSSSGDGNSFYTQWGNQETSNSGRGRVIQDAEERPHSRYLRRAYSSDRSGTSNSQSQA
UniProt Q96GD4, whole entry: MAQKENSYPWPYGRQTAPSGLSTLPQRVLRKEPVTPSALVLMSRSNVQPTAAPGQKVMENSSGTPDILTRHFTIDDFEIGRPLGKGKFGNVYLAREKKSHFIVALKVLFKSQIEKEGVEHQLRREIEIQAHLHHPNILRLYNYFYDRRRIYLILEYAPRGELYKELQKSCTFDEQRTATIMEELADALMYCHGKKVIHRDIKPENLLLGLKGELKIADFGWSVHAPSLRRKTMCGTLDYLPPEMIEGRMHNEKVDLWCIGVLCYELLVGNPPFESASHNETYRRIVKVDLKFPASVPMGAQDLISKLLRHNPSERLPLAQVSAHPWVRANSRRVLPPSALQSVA

One test deals with human PLK4 (Homo sapiens (Human), UniProt O00444). Kind of test: PLK4 inhibition assay (indirect ELISA). In kind it is biochemical. For orientation: An ELISA detects its analyte on a solid surface through an enzyme-linked reagent.
The next test concerns the target Aurora B (Homo sapiens (Human), UniProt Q96GD4). Kind of test: Aurora B inhibition assay (Z-Lyte). It is filed as biochemical. Particulars: read-out: Aurora B IC50 Ranges.

Like-named read-outs stand apart in the source and are kept apart here. Where only a bound is given, the exact number is not on record here.

Usually IC50 stands for the concentration that gives 50% inhibition. Turning to `COc1ccc2c(c1)[C@]1(C[C@H]1c1ccc3c(-c4ccc(N5CCN(C(C)C)CC5)cc4)n[nH]c3c1)C(=O)N2` [Example A97, (1R,2S)-2-(3-(4-(4-isopropylpiperazin-1-yl)phenyl)-1H-indazol-6-yl)-5′-methoxyspiro[cyclopropane-1,3′-indolin]-2′-one 2,2,2-trifluoroacetate], the IC50 at human PLK4 (read-out: PLK4 IC50 Ranges) is under 100 nM.

Take `COc1ccc2c(c1)[C@]1(C[C@H]1c1ccc3c(-c4ccc(C5CCNCC5)cc4)n[nH]c3c1)C(=O)N2` (relative stereo) [Example A122, (1R*,2S*)-5′-methoxy-2-(3-(4-(piperidin-4-yl)phenyl)-1H-indazol-6-yl)spiro[cyclopropane-1,3′-indolin]-2′-one 2,2,2-trifluoroacetate]: the IC50 on human PLK4 and on Aurora B was under 100 nM in each case.
